This is a selection; strong and weak results do not stand in their true shares. Some structures show a salt or complex split into parts, the way the source records it. Calls of active or inactive are those of the source.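 How the source made its calls: active means inhibition above the mean of all tested compounds plus 3 SD (cut at about 70% in these data); inactive means the rest.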
Biological target: Photoreceptor-specific nuclear receptor (Homo sapiens) (UniProt Q9Y5X4)
Assay: NCOR release from NR2E3 in cells – cell-based, luminescence, CHO-S, Gal4-NCOR/VP16-NR2E3, primary screen (AID 602229);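 further: 0% = DMSO with NR2E3 transfected cells and 100% = cells lacking NR2E3 construct; higher means lower luciferase signal from less NR2E3 corepressor binding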
Settings: CHO-S Gal4-NCOR/VP16-NR2E3 two-hybrid, luciferase; at 3.98 µM; stronger effect = higher value

Protein sequences, listed by entry. Tags and fused reporters are not part of them.
UniProt Q9Y5X4, whole entry: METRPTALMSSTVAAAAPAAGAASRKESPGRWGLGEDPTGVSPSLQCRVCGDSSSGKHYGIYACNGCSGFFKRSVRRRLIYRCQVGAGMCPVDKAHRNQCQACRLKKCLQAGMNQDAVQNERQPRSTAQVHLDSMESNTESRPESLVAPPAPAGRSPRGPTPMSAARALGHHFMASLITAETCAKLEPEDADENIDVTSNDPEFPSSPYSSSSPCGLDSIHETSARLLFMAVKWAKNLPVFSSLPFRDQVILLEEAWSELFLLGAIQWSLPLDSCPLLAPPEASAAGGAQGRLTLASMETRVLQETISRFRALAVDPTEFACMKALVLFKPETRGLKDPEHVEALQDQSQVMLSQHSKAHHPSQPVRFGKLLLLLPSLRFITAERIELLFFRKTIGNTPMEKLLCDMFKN

SMILES | inhibition of corepressor binding
CP(=O)(Nc1ccc(Cl)cc1)Oc1ccc(F)cc1 (centres undefined) | inactive: 20.2%
COc1ccccc1OP(C)(=O)Nc1ccccc1Br (centres undefined) | inactive: 3.4%
CC(C)(C)c1ccc(OP(C)(=O)O)cc1 | inactive: -6.29%
CN(C)C(=O)c1c([N+](=O)[O-])cc([N+](=O)[O-])cc1[N+](=O)[O-] | inactive: 30.8%
COc1ccc(OP(C)(=O)Nc2ccc(Br)cc2)cc1 (centres undefined) | inactive: 14.6%
CCN(CC)CC(O)COC(=O)C(O)(c1ccccc1)C1CCCCC1 (centres undefined) | inactive: 0.82%
CCc1ccc(OP(C)(=O)Nc2cccnc2)cc1 (centres undefined) | inactive: 3%
CP(=O)(Oc1ccccc1)N1CCOC1=O (centres undefined) | inactive: -21.3%
O=C(OCCCN1CCCC1)C(O)(c1ccccc1)C1CCCCC1 (centres undefined) | inactive: 16%
COc1ccccc1OP(C)(=O)Nc1c(C)n(C)n(-c2ccccc2)c1=O (centres undefined) | inactive: -12.2%
CP(=O)(OC12CC3CC(CC(C3)C1)C2)OC12CC3CC(CC(C3)C1)C2 | inactive: -12.4%
CCOC(=O)c1ccc(NP(C)(=O)Oc2ccc(Cl)cc2)cc1 (centres undefined) | inactive: 7.8%
CCCCCCCCCCCCCCCC1C[N+](C)(C)CCOP(C)(=O)O1 (centres undefined) | inactive: -0.73%
CP(=O)(Nc1ccc(Cl)cc1Cl)Oc1ccccc1 (centres undefined) | inactive: 1.11%
CP(=O)(OCCOc1ccccc1)OCCOc1ccccc1 | inactive: -24.5%
Cc1cc(C)cc(OP(C)(=O)Nc2cccc(C(F)(F)F)c2)c1 (centres undefined) | inactive: 1.81%
O=C1C(O)=C([N+](=O)[O-])C(=O)C(O)=C1[N+](=O)[O-] | inactive: -11%
COc1ccc(OP(C)(=O)Nc2ccccc2Br)cc1 (centres undefined) | inactive: 0.74%
COc1ccccc1OP(C)(=O)Nc1ccc(C)c(C)c1 (centres undefined) | inactive: 19%
Cc1c(NP(C)(=O)Oc2ccc(C(C)C)cc2)c(=O)n(-c2ccccc2)n1C (centres undefined) | inactive: -3.85%
O=[N+]([O-])c1cc([N+](=O)[O-])c(Nc2ccccn2)c([N+](=O)[O-])c1 | inactive: -3.25%
CCc1ccc(OP(C)(=O)O)cc1 | inactive: 2.26%
COc1ccccc1OP(C)(=O)Nc1ccc(C)cc1C (centres undefined) | inactive: -1.15%
CP(=O)(Nc1ccccn1)Oc1ccccc1 (centres undefined) | inactive: -7.43%
COc1ccccc1OP(C)(=O)Nc1ccc(Br)cc1 (centres undefined) | inactive: -6.54%

SMILES | inhibition of corepressor binding
CN(C)CCOC(=O)C(O)(c1ccccc1)C1CCCC1 (centres undefined) | inactive: 5.12%
COc1ccc(OP(C)(=O)Nc2ccccn2)cc1 (centres undefined) | inactive: 5.29%
O=C(OCCN1CCN(CCOCc2ccccc2)CC1)C(O)(c1ccccc1)c1ccccc1 | inactive: 6.45%
O=C(OC1CN2CCC1CC2)c1ccc([N+](=O)[O-])cc1 (centres undefined) | inactive: 16%
COc1ccc2c(c1O)-c1c(O)c(OC)cc3c1[C@H](C2)[N+](C)(C)CC3.O=[N+]([O-])c1cc([N+](=O)[O-])c([O-])c([N+](=O)[O-])c1[O-] | inactive: -3.7%
O=[N+]([O-])c1cc([N+](=O)[O-])c(Nc2ccc(Cl)cc2)c([N+](=O)[O-])c1 | inactive: 15.7%
CC(C)c1ccc(OP(C)(=O)Nc2ccc(SC(F)(F)F)cc2)cc1 (centres undefined) | inactive: 17.6%
CP(=O)(Nc1ccccc1F)Oc1ccccc1 (centres undefined) | inactive: 4.56%
CCN(CC)CCCOC(=O)C(O)(c1ccccc1)C1CCCCC1 (centres undefined) | inactive: 9.86%
Cc1c([N+](=O)[O-])cc([N+](=O)[O-])c(Br)c1[N+](=O)[O-] | inactive: -7.43%
CCCCCOc1ccc(NP(C)(=O)Oc2ccc(Cl)cc2Cl)cc1 (centres undefined) | inactive: -12.7%
O=[N+]([O-])c1cc([N+](=O)[O-])c(OC2CCCCC2O)c([N+](=O)[O-])c1 (centres undefined) | inactive: 12.9%
CP(=O)(Nc1ccccc1)Oc1ccc(F)cc1 (centres undefined) | inactive: 3.4%
CCN(CC)CCCNc1ccccc1[N+](=O)[O-].O=[N+]([O-])c1cc([N+](=O)[O-])c(O)c([N+](=O)[O-])c1 | inactive: -5.21%
COc1ccc(OP(C)(=O)Nc2ccc(SC(F)(F)F)cc2)cc1 (centres undefined) | inactive: 23.7%
CCOC(=O)c1ccc(NP(C)(=O)Oc2ccc(F)cc2)cc1 (centres undefined) | inactive: -21.9%
Cc1cc(-c2cccc3ccccc23)c(C)cn1.O=[N+]([O-])c1cc([N+](=O)[O-])c(O)c([N+](=O)[O-])c1 | inactive: -5.08%
O=[N+]([O-])c1cc([N+](=O)[O-])c(NCC2CCS(=O)(=O)C2)c([N+](=O)[O-])c1 (centres undefined) | inactive: -7.94%
O=[N+]([O-])c1ccc(OP2(=O)COCCO2)cc1 (centres undefined) | inactive: -18.1%
Cc1c(C(c2ccc3c(c2)OCO3)c2c(C)n(C)n(-c3ccccc3)c2=O)c(=O)n(-c2ccccc2)n1C.O=[N+]([O-])c1cc([N+](=O)[O-])c(O)c([N+](=O)[O-])c1 | inactive: -19.5%
COc1ccc(OP(C)(=O)Nc2cccc(Br)c2)cc1 (centres undefined) | inactive: 5.27%
COc1ccc(NP(C)(=O)Oc2ccccc2OC)cc1 (centres undefined) | inactive: -15.9%
CN(C)CCOC(=O)C(O)(c1ccccc1)C1CCCCC1 (centres undefined) | inactive: 8.91%
CP(=O)(Nc1ccc2c(c1)OCCO2)Oc1ccccc1 (centres undefined) | inactive: -19.7%
O=[N+]([O-])c1cc([N+](=O)[O-])c(C(F)(F)F)c([N+](=O)[O-])c1O | inactive: -13.9%

SMILES | inhibition of corepressor binding
Cc1ccccc1NP(C)(=O)Nc1ccccc1C | inactive: -21.7%
CP(=O)(Nc1ccc(SC(F)(F)F)cc1)Oc1ccc(F)cc1 (centres undefined) | inactive: 8.12%
CCOP(C)(=S)SCC(=O)NC(C)(CC)C(=O)O (centres undefined) | inactive: -6.68%
O=[N+]([O-])c1cc([N+](=O)[O-])c(-c2cnn(-c3ccccc3)c2)c([N+](=O)[O-])c1 | inactive: 6.99%
Cc1nc2ccc3ccccc3c2s1.O=[N+]([O-])c1cc([N+](=O)[O-])c(O)c([N+](=O)[O-])c1 | inactive: -9.74%
O=[N+]([O-])c1cc([N+](=O)[O-])c(-n2nnc3ccccc32)c([N+](=O)[O-])c1 | inactive: 2.66%
CN(Cc1cccnc1)C(=O)COc1ccc(Cl)c(Cl)c1.O=[N+]([O-])c1cc([N+](=O)[O-])c(O)c([N+](=O)[O-])c1 | inactive: -0.47%
CN1CCCCC1COC(=O)C1(O)c2ccccc2CCc2ccccc21 (centres undefined) | inactive: 7.27%
COc1ccccc1OP(C)(=O)Nc1c(C)cccc1C (centres undefined) | inactive: -7.82%
CCCOc1ccc(NP(C)(=O)Oc2ccc(Cl)cc2)cc1 (centres undefined) | inactive: -5.71%
CP(=O)(Nc1ccc(SC(F)(F)F)cc1)Oc1ccccc1 (centres undefined) | inactive: 1.81%
COc1ccc(-c2ccccn2)cc1.O=[N+]([O-])c1cc([N+](=O)[O-])c(O)c([N+](=O)[O-])c1 | inactive: -16.4%
CCOC(=O)C(CC)C1=NC(C)(C)Cc2ccccc21.O=[N+]([O-])c1cc([N+](=O)[O-])c(O)c([N+](=O)[O-])c1 (centres undefined) | inactive: 4.44%
CC1=C2N=C(C=C3N=C(C(C)=C4[N-][C@@](C)([C@@H]5N=C1[C@](C)(CCC(=O)NC[C@@H](C)OP(=O)([O-])O[C@H]1[C@@H](O)[C@@H](n6cnc7cc(C)c(C)cc76)O[C@@H]1CO)[C@H]5CC(N)=O)[C@@](C)(CC(N)=O)[C@@H]4CCC(N)=O)[C@@](C)(CC(N)=O)[C@@H]3CCC(N)=O)C(C)(C)[C@@H]2CCC(N)=O.[C-]#N.[Co+3] | inactive: -4.76%
O=[N+]([O-])c1cc([N+](=O)[O-])c(Nc2nnnn2CCO)c([N+](=O)[O-])c1 | inactive: -5.7%
CC1=NCCc2c1[nH]c1ccccc21.O=[N+]([O-])c1cc([N+](=O)[O-])c(O)c([N+](=O)[O-])c1 | inactive: -14.4%
O=C(O)c1cccc(Nc2c([N+](=O)[O-])cc([N+](=O)[O-])cc2[N+](=O)[O-])c1 | inactive: -9.01%
Cc1cc(C)cc(OP(C)(=O)Nc2ccccn2)c1 (centres undefined) | inactive: -5.36%
CP(=O)(Nc1cccc(Br)c1)Oc1ccccc1 (centres undefined) | inactive: -1.44%
Cc1ccc(C)c(NP(C)(=O)Oc2ccccc2)c1 (centres undefined) | inactive: -3.67%
COc1ccccc1OP(C)(=O)Nc1cccc(Br)c1 (centres undefined) | inactive: -17.1%
Cc1cc(C)cc(OP(C)(=O)Nc2ccc(C)cc2C)c1 (centres undefined) | inactive: -7.47%
CCOC(=O)c1ccc(NP(C)(=O)Oc2cc(C)cc(C)c2)cc1 (centres undefined) | inactive: -17.8%
COc1ccccc1-c1ccccn1.O=[N+]([O-])c1cc([N+](=O)[O-])c(O)c([N+](=O)[O-])c1 | inactive: -15.8%
CCN(CC)CCCOC(=O)C(O)(c1ccccc1)c1ccccc1 | inactive: -14%

SMILES | inhibition of corepressor binding
CCOC(=O)c1ccc(NP(C)(=O)Oc2ccccc2)cc1 (centres undefined) | inactive: 1.23%
Cc1ccc(NP(C)(=O)Oc2ccccc2)c(C)c1 (centres undefined) | inactive: -9.72%
COc1ccccc1OP(C)(=O)Nc1ccc(C)cc1 (centres undefined) | inactive: 3.49%
COc1ccc(OP(C)(=O)Nc2cccc(F)c2)cc1 (centres undefined) | inactive: -9.62%
COc1ccccc1OP(C)(=O)Nc1cc(Cl)ccc1C (centres undefined) | inactive: -15.3%
Cc1cc(C)cc(OP(C)(N)=O)c1 (centres undefined) | inactive: 4.97%
O=[N+]([O-])c1cc([N+](=O)[O-])c(Nc2cccnc2)c([N+](=O)[O-])c1 | inactive: -32.6%
Cc1cccc(C)c1OP(C)(N)=O (centres undefined) | inactive: 6.78%
CC(C)(C)c1ccc(OP(C)(=O)Nc2ccc(SC(F)(F)F)cc2)cc1 (centres undefined) | inactive: 4.61%
O=[N+]([O-])c1ccc2c(c1)C=Nc1ccccc1O2 | inactive: 15.4%
CP(=S)(Nn1cnnc1)Oc1ccccc1 (centres undefined) | inactive: -6.77%
COc1ccccc1OP(C)(=O)Nc1ccccc1 (centres undefined) | inactive: 16.5%
CP(=O)(Nc1ccccc1Br)Oc1ccccc1 (centres undefined) | inactive: 20.9%
CCOP(C)(=S)SCC(=O)NC(C)C(=O)O (centres undefined) | inactive: -14.1%
O=[N+]([O-])c1cc([N+](=O)[O-])c(O)c([N+](=O)[O-])c1.c1ccc(Oc2ccncc2)cc1 | inactive: 5.76%
CCOC(=O)c1ccc(NP(C)(=O)Oc2ccc(OC)cc2)cc1 (centres undefined) | inactive: -1%
CP(=O)(Nc1ccccn1)Oc1ccc(Cl)cc1 (centres undefined) | inactive: -5.56%
CP(=O)(Oc1ccccc1)OC(c1ccccc1)C(F)(F)F (centres undefined) | inactive: -12%
CP(=O)(Nc1ccc(SC(F)(F)F)cc1)Oc1ccc(Cl)cc1 (centres undefined) | inactive: -18.1%
Cc1ccc(Nc2c([N+](=O)[O-])cc([N+](=O)[O-])cc2[N+](=O)[O-])cc1 | inactive: 10%
Cc1cccc(C)c1OP(C)(=O)Nc1ccc(SC(F)(F)F)cc1 (centres undefined) | inactive: -18.9%
Cc1cc(C)cc(OP(C)(=O)Nc2ccc(SC(F)(F)F)cc2)c1 (centres undefined) | inactive: 29.9%
CP(=O)(NC(=O)Nc1ccccc1)Oc1ccccc1 (centres undefined) | inactive: 6.75%
CCc1ccc(OP(C)(=O)N2CCN(c3ccc([N+](=O)[O-])cc3)CC2)cc1 (centres undefined) | inactive: 27.7%
